Laboratory results published in patent publication US9346810B2, “Pyrrolopyrimidine compounds and uses thereof” (HUTCHISON MEDIPHARMA LIMITED, priority 2010, dated 2016).
Like-named read-outs stand apart in the source and are kept apart here.

The chains behind the UniProt entries cited, without tags or fusion partners. Residues count along the entry.
UniProt O60674, 849-1124: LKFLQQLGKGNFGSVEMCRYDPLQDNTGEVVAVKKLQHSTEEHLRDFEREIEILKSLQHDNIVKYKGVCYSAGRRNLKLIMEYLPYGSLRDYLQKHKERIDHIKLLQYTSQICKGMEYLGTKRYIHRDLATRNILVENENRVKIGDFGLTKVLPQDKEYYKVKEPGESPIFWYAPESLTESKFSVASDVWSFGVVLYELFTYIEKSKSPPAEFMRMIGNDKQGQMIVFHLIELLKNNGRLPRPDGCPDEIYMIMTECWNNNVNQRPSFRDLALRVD
UniProt P52333, 822-1111: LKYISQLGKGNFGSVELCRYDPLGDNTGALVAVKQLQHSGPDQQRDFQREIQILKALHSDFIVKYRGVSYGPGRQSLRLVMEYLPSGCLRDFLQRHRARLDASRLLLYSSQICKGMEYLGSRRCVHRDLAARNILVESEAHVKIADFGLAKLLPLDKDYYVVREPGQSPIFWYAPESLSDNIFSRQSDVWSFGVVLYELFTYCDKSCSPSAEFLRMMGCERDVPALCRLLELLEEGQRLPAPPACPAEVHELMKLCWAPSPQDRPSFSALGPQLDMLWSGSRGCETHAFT
UniProt P23458, 875-1153: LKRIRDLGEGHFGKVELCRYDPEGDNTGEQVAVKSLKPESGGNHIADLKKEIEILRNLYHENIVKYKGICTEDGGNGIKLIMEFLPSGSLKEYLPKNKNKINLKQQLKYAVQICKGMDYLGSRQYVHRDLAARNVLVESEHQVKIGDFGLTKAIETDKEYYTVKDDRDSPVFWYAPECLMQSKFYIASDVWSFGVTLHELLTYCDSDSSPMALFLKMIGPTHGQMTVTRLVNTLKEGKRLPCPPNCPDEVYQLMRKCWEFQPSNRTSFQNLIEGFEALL

What was measured:
Assay type in all cases: biochemical
[1] = molecular target: Recombinant human JAK2 catalytic domain (Homo sapiens (Human), UniProt O60674); test: JAK2 kinase assay (Z'-LYTE, Tyr 6 Peptide)
Protocol: (§1) JAK1/2/3 kinase assay are performed in vitro using Kit-Tyr 6 Peptide (Invitrogen, Cat. No. PV4122). TYK2 kinase assay are performed in vitro using Z′-LYTE™ Kinase Assay Kit-Tyr 3 Peptide (Invitrogen, Cat. No. PV3192). […] All compounds are initially tested at 8 different concentrations (1 μM down to 0.0003 μM) using a 1:3 serial dilution scheme.

[2] = molecular target: Recombinant human JAK3 catalytic domain (Homo sapiens (Human), UniProt P52333); test: JAK3 kinase assay (Z'-LYTE, Tyr 6 Peptide)
Protocol: as §1

[3] = molecular target: Recombinant human JAK1 catalytic domain (Homo sapiens (Human), UniProt P23458); test: JAK1 kinase assay (Z'-LYTE, Tyr 6 Peptide); details: read-out: JAK1 (enzyme, IC50)
Protocol: as §1

[4] = read-out: IC50 in JAK2 kinase assay
[5] = read-out: IC50 in JAK3 kinase assay

CN(c1ccc(C(=O)NC2c3ccccc3CC2O)cc1F)[C@@H]1CCN(c2ncnc3[nH]ccc23)C1 (some centres unmarked) [Compound 184]
IC50 [1, 4]: 0.001 to 0.1 µM | IC50 [2, 5]: 0.1 to 1 µM

CN(c1ccc(C(=O)NC2c3ccccc3C[C@H]2O)cc1F)[C@@H]1CCN(c2ncnc3[nH]ccc23)C1 (single isomer, unassigned) [Compound 204]
IC50 [1, 4]: 0.001 to 0.1 µM

CN(c1ccc(C(=O)NC(CO)c2ccc(Cl)cc2)cc1F)[C@@H]1CCN(c2ncnc3[nH]ccc23)C1 (some centres unmarked) [Compound 201]
IC50 [2, 5]: 0.1 to 1 µM

CN(c1ccc(C(=O)NC[C@H](O)c2ccccc2)cc1F)[C@@H]1CCN(c2ncnc3[nH]ccc23)C1 [Compound 202]
IC50 [2, 5]: 0.1 to 1 µM

CN(c1nc(C#N)cs1)[C@@H]1CCN(c2ncnc3[nH]ccc23)C1 [Compound 93]
IC50 [1]: 0.001 to 0.1 µM | IC50 [2]: 0.1 to 1 µM

CN(c1ncc(C#N)cn1)[C@@H]1CCN(c2ncnc3[nH]ccc23)C1 [Compound 142, (R)-2-((1-(7H-pyrrolo[2,3-d]pyrimidin-4-yl)pyrrolidin-3-yl)(methyl)amino)pyrimidine-5-carbonitrile]
IC50 ([1]; read-out: JAK2 (enzyme, IC50)): 0.055 µM | IC50 [3]: 0.0094 µM

CN(c1ccc(C(=O)N[C@@H]2c3ccccc3C[C@H]2O)cc1F)[C@@H]1CCN(c2ncnc3[nH]ccc23)C1 [Compound 206]
IC50 ([1]; read-out: JAK2 (enzyme, IC50)): 0.0005 µM | IC50 ([2]; read-out: JAK3 (enzyme, IC50)): 0.047 µM
